Values of other authors in article PMC11768433 (Viruses, 2024).
Read-outs that look alike come from different tables or passages of the source.

Tests used:
HSV-1 [1] = test system: HSV-1; parameters: method as in Ref.35216177; settings: HSV-1 replication, Vero cells; ref Ref.35216177
HSV-2 = test system: HSV-2; parameters: method as in Ref.35216177; settings: HSV-2 replication, Vero cells; ref Ref.35216177
[2] = test system: Human embryonic kidney HEK293T cells; parameters: method as in Ref.30867304; settings: ref Ref.30867304
SIV(239,PBJ) [3] = test system: SIV(239,PBJ); parameters: method as in Ref.30867304; settings: TZM-bl, range, ref Ref.30867304
HEK293T cell = test system: HEK293T cell; parameters: method as in Ref.30089693; settings: ref Ref.30089693
[4] = test system: Human parainfluenza viruse 3(HPIV 3); parameters: method as in Ref.28344321; settings: HPIV 3 infection, Vero cells; ref Ref.28344321
MT-4 cell = test system: MT-4 cell; parameters: method as in Ref.30089693; settings: ref Ref.30089693
HCoV-229E [5] = test system: HCoV-229E; parameters: method as in Ref.35216177; settings: HCoV-229E replication, Vero cells; ref Ref.35216177
HSV-1 [6] = test system: HSV-1; parameters: method as in Ref.35055066; settings: ref Ref.35055066
[7] = test system: Human parainfluenza virus type-2 (HPIV2); parameters: method as in Ref.35055066; settings: ref Ref.35055066
HCoV-229E [8] = test system: HCoV-229E; parameters: method as in Ref.35055066; settings: virus pre-treatment, ref Ref.35055066
HPIV-3 = test system: HPIV-3; parameters: method as in Ref.35216177; settings: HPIV-3 replication, Vero cells; ref Ref.35216177
HCoV-OC43 = test system: HCoV-OC43; parameters: method as in Ref.35216177; settings: HCoV-OC43 replication, Vero cells; ref Ref.35216177
hepatitis C virus(HCVpp) [9] = test system: hepatitis C virus(HCVpp); parameters: method as in Ref.20156485; settings: Huh-7 human hepatoma cells, ref Ref.20156485
hepatitis C virus(HCVpp) [10] = test system: hepatitis C virus(HCVpp); parameters: method as in Ref.20156485; settings: primary human hepatocytes, ref Ref.20156485
SIV(239,PBJ) [11] = test system: SIV(239,PBJ); parameters: method as in Ref.30089693; settings: TZM-bl, ref Ref.30089693

Q: Which results are given for “FVPWFSKFlPRIL [DRAVPe00378, DRAVP database entry, TL peptide]”?
A: IC50 (HSV-1 [1]): 7.7 µM; IC50 (HSV-2): 9.83 µM

Q: Which IC50 (HSV-1 [1]) does the source give for “FVPWFSKFlkRIL [DRAVPe00384, DRAVP database entry, TL peptide]” here?
A: Its IC50 is 3.53 µM.

Q: What about the IC50 (HSV-2) of the same substance?
A: Its IC50 is 2.8 µM.

Q: For “WEQKIEELLKKAEEQQKKNEEELKKLEKX [DRAVPe00787]”, which CC50 [2] is on record?
A: Its CC50 is 25.31 µM.

Q: What about the IC50 (SIV(239,PBJ) [3]) of the same substance?
A: Its IC50 is 4 to 6 pM.

Q: With “FVPWFSKFlXRILGGC [DRAVPe00390, DRAVP database entry, TL peptide]” as the substance, how does the IC50 (HSV-1 [1]) read?
A: The IC50 was 9.54 µM.

Q: With “YTSLIHSLIEESQNQQEKNEQELLELDX [DRAVPe00782]” as the substance, how does the CC50 (HEK293T cell) read?
A: Its CC50 is 408 µM.

Q: For “FVPWFSKFlWRIL [DRAVPe00385, DRAVP database entry, TL peptide]”, which IC50 (HSV-1 [1]) is on record?
A: The IC50 was 3.01 µM.

Q: And the IC50 (HSV-2)?
A: The IC50 was 0.77 µM.

Q: For “VALDPIDIAnti-SIVLNKAKSDLEESKEWIRRSNGKLDSIGSGSGC [DRAVPe01791]”, which IC50 [4] is on record?
A: Its IC50 is 1 nM.

Q: For “VALDPIDIAnti-SIVLNKAKSDLEESKEWIRRSNGKLDSIGSGSGX [DRAVPe01793]”, which IC50 [4] is on record?
A: Its IC50 is 0.03 ± 0.04 nM.

Q: For “FVPWFSKFlXRIL [DRAVPe00396, DRAVP database entry, TL peptide]”, which IC50 (HSV-1 [1]) is on record?
A: Its IC50 is 3.13 µM.

Q: With “FVPWFSKFlXRILC [DRAVPe00389, DRAVP database entry, TL peptide]” as the substance, how does the IC50 (HSV-1 [1]) read?
A: The IC50 was 6.4 µM.

Q: For “FVQWFSKFLGRIL [DRAVPe00376, DRAVP database entry, TL peptide]”, which IC50 (HSV-1 [1]) is on record?
A: The IC50 was 8.55 µM.

Q: And the IC50 (HSV-2)?
A: The IC50 was 8.28 µM.

Q: Which CC50 (MT-4 cell) does the source give for IEELLKKAEEQQKKNEEELKKLEX [DRAVPe00660] here?
A: Its CC50 is 213.4 µM.

Q: What about the CC50 (HEK293T cell) of the same substance?
A: Its CC50 is 208.43 µM.

Q: For “FVPWFSKFlwRIL [DRAVPe00386, DRAVP database entry, TL peptide]”, which IC50 (HSV-1 [1]) is on record?
A: Its IC50 is 1.86 µM.

Q: What about the IC50 (HSV-2) of the same substance?
A: Its IC50 is 0.58 µM.

Q: What does the source list for “FVPWFSKFlGRIL [DRAVPe00377, DRAVP database entry, TL peptide]”?
A: IC50 (HCoV-229E [5]): 7.76 µM; IC50 (HSV-1 [1]): 9.99 µM; IC50 (HSV-2): 8.86 µM

Q: Which IC50 (HSV-1 [1]) does the source give for “CGGFVPWFSKFlXRIL [DRAVPe00392, DRAVP database entry, TL peptide]” here?
A: The IC50 was 2.32 µM.

Q: Which IC50 (HSV-1 [6]; HSV-1, co-treatment: simultaneous addition of AR-23 and virus to the cells) does the source give for “AIGSILGALAKGLPTLISWIKNR [DRAVPe00469, DRAVP database peptide AR-23]” here?
A: Its IC50 is 0.78 µM.

Q: What about the IC50 (HSV-1 [6]; HSV-1, inhibition of viral attachment on the host cell membrane) of the same substance?
A: The IC50 was 6.25 µM.

Q: What about the IC50 (HSV-1 [6]; HSV-1, inhibition the entry of virus) of the same substance?
A: Its IC50 is 3.12 µM.

Q: And the IC50 (HSV-1 [6]; HSV-1, virus pre-treatment: virus incubated with the peptide)?
A: The IC50 was 0.39 µM.

Q: What about the IC50 ([7]; HPIV2, co-treatment) of the same substance?
A: The IC50 was 6.25 µM.

Q: And the IC50 ([7]; HPIV2, virus pre-treatment)?
A: Its IC50 is 3.12 µM.

Q: And the IC50 (HCoV-229E [8])?
A: Its IC50 is 3.12 µM.

Q: Which CC50 (HEK293T cell) does the source give for IEELIKKSEEQQKKNEEELKKLEX [DRAVPe00656] here?
A: Its CC50 is 140.43 µM.

Q: Which results are given for “FVPWFSKFlxRIL [DRAVPe00382, DRAVP database entry, TL peptide]”?
A: IC50 (HPIV-3): > 50 µM; IC90 (HPIV-3): > 50 µM; IC50 (HSV-1 [1]): 3.65 µM; IC50 (HSV-2): 3.13 µM

Q: With “FVPWFSKFlXRIL [DRAVPe00380, DRAVP database entry, TL peptide]” as the substance, how does the IC50 (HPIV-3) read?
A: Its IC50 is greater than 50 µM.

Q: And the IC90 (HPIV-3)?
A: The IC90 was greater than 50 µM.

Q: And the IC50 (HSV-1 [1])?
A: Its IC50 is 7.73 µM.

Q: What about the IC50 (HSV-2) of the same substance?
A: The IC50 was 9.61 µM.

Q: And the IC50 (HCoV-OC43)?
A: The IC50 was 11.3 µM.

Q: What does the source list for “FVPWFSKFlpRIL [DRAVPe00379, DRAVP database entry, TL peptide]”?
A: IC50 (HSV-1 [1]): > 50 µM; IC90 (HSV-1 [1]): > 50 µM; IC50 (HSV-2): > 50 µM; IC90 (HSV-2): > 50 µM

Q: With VSFAIKWEYVLLLFLL [DRAVPe01483] as the substance, how does the EC50 (hepatitis C virus(HCVpp) [9]) read?
A: Its EC50 is 0.3 ± 0.4 µM.

Q: And the EC50 (hepatitis C virus(HCVpp) [10])?
A: The EC50 was 0.3 µM.

Q: Which IC50 (HSV-1 [1]) does the source give for “FVPWFSKFlKRIL [DRAVPe00383, DRAVP database entry, TL peptide]” here?
A: Its IC50 is 2.49 µM.

Q: And the IC50 (HSV-2)?
A: The IC50 was 1 µM.

Q: Which IC50 (HSV-1 [1]) does the source give for “CFVPWFSKFlXRIL [DRAVPe00391, DRAVP database entry, TL peptide]” here?
A: The IC50 was 0.89 µM.

Q: Which results are given for “YTSLIEELIKKSEEQQKKNEEELKKLEX [DRAVPe00783]”?
A: CC50 (HEK293T cell): 166.77 µM; IC50 (SIV(239,PBJ) [11]): 0.06 nM

Q: Which CC50 (MT-4 cell) does the source give for “WEQKIEELLKKAEEQQKKNEEELKKLEX [DRAVPe00785]” here?
A: Its CC50 is 94.06 µM.

Q: And the CC50 (HEK293T cell)?
A: The CC50 was 88.86 µM.

Q: What about the IC50 (SIV(239,PBJ) [11]) of the same substance?
A: Its IC50 is 0.01 to 0.04 nM.

Q: Which results are given for “LEANIEELLKKAEEQQKKNEEELKKLEX [DRAVPe00784]”?
A: CC50 (MT-4 cell): 135.07 µM; CC50 (HEK293T cell): 130.07 µM; IC50 (SIV(239,PBJ) [11]): 0.03 to 0.06 nM
